Results as given in PubChem BioAssay (NCATS).
Only a part is listed here, and it is no random draw. Inconclusive results are not listed. Active and inactive are the calls of the source. Calls follow the shape of the dose curve; as a rule, active = well fitted curve in the direction sought with a large enough effect; inconclusive = small, poorly fitted or top-dose-only effect, or another doubt; inactive = no such curve, though single readings can be large; an effect the other way counts as inactive or inconclusive.

By UniProt entry, the sequences of proteins in these tests, tags left out. Where a name states a change or a piece, a line headed by the entry shows the natural chain unless it says otherwise.
UniProt A8B2U2: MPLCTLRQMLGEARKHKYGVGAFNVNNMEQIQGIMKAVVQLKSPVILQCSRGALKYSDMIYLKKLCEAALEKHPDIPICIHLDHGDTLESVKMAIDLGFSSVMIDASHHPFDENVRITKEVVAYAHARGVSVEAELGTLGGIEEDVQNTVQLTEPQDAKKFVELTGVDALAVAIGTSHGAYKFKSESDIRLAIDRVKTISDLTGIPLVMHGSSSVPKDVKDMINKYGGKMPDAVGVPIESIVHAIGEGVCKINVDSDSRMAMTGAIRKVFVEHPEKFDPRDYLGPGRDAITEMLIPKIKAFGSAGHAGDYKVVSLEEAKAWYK
UniProt P00883: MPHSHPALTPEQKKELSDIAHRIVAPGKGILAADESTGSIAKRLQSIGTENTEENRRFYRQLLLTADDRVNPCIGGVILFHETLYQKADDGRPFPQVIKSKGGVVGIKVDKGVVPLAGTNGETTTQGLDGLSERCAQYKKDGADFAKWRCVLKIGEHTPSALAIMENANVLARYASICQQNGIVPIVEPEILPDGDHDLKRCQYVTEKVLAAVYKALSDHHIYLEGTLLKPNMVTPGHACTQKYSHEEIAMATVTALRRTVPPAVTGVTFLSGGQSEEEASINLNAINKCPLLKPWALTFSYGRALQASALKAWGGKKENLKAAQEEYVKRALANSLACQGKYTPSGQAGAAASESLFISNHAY

Columns and labels:
[1] = qHTS Assay for Inhibitors of Fructose-1,6-bisphosphate Aldolase from Giardia Lamblia: Giardia lamblia growth inhibition (AID 2785); details: Giardia lamblia trophozoite growth inhibition; at 38.3 µM (top of the series); also: nearly all actives have a fitted effect of over 70% in size
In short: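 Whole-parasite growth test: Giardia WB trophozoites in TYI-S-33 (pH 7.0), 100 per well, incubated 48 h at 37C with compound. ATP content was read by ATPlite luminescence.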

[2] = qHTS Assay for Inhibitors of Fructose-1,6-bisphosphate Aldolase from Giardia Lamblia: Mammalian cellular toxicity (AID 2786); details: mammalian cell viability counter-screen; at 57.5 µM (top of the series);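 also: compound exposure lasted 48 h before reading; nearly all actives have a fitted effect of over 60% in size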
In short: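 Mammalian cytotoxicity surrogate: Chinese hamster ovary cells exposed to compound for 48 h at 37 °C. Cellular ATP then measured with ATPlite reagent, 20 min incubation.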

[3] = molecular target: Fructose-bisphosphate aldolase (Giardia intestinalis (strain ATCC 50803 / WB clone C6)) (UniProt A8B2U2); assay: qHTS Assay for Inhibitors of Fructose-1,6-bisphosphate Aldolase from Giardia Lamblia: Primary screen confirmation (AID 2787); details: purified Giardia aldolase enzyme activity; at 57.5 µM (top of the series);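 also: aldolase product measured through coupled diaphorase step turning resazurin into fluorescent resorufin; nearly all actives have a fitted effect of over 45% in size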
In short: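 Confirmation of primary hits by qHTS up to 57.5 uM final compound. Enzyme at 40 nM with 30 uM ZnCl2, 10 min RT pre-incubation, then substrate/coupling/resorufin-forming detection mix for 20 min before fluorescence read at 525/598 nm.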

[4] = molecular target: Fructose-bisphosphate aldolase A (Oryctolagus cuniculus) (UniProt P00883); assay: qHTS Assay for Inhibitors of Fructose-1,6-bisphosphate Aldolase from Giardia Lamblia: Rabbit FBPA Selectivity (AID 2794); details: Rabbit muscle FBPA enzyme inhibition, selectivity counter-screen; at 57.5 µM (top of the series); also: nearly all actives have a fitted effect of over 60% in size
In short: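 Selectivity was assessed on rabbit Class I enzyme by qHTS. Product formation was detected by AmpLite Red fluorescence (525/598 nm) after a 20 min RT reaction started with substrate, following 10 min compound preincubation at up to 57.5 uM final.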

[5] = qHTS Assay for Inhibitors of Fructose-1,6-bisphosphate Aldolase from Giardia Lamblia: Coupling assay counterscreen confirmation (AID 2795); details: GAPDH coupling enzyme counterscreen, biochemical; at 57.5 µM (top of the series); also: nearly all actives have a fitted effect of over 55% in size
In short: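 Readings at 525 nm excitation and 598 nm emission follow a two-step room-temperature protocol: 10 min of compound (up to 57.5 uM final) with coupling enzyme reagent, then 20 min with substrate and AmpLite Red detection reagent.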
% is scaled to controls: 0 for no effect and ±100 for the full control effect.

Cc1cc(SC(NC=O)C(Cl)(Cl)Cl)ncn1 (stereo not given)
inactive: activity change, negative = inhibition [1] -9.25% | viability change, negative = toxicity [2] 21.2% | activity change, negative = inhibition [3] -6.85% | activity, negative = inhibition [4] -12.8% | activity change, negative = inhibition [5] -6.51%
